# In PubChem BioAssay AID1832 (Broad Institute, 2009):
# Amino acid sequences for entries named in this document (tags omitted).
# UniProt Q9XUB2, whole entry: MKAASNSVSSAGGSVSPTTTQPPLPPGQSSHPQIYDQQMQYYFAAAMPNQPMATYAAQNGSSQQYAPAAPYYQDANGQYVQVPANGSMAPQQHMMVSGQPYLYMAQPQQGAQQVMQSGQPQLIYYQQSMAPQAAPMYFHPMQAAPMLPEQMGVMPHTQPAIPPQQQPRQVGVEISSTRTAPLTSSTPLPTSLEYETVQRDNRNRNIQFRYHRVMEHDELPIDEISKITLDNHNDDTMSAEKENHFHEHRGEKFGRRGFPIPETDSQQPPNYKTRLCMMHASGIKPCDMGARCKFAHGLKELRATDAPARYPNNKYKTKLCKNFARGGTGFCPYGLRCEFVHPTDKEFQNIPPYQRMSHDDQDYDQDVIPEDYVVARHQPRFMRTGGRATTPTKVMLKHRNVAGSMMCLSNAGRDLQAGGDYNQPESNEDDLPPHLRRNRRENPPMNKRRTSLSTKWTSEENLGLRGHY
# The entries are a selection whose mix differs from that of the whole data set. Some salts or complexes appear as unconnected parts, following the source record. Calls of active or inactive are those of the source.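 Rule for the calls: active = inhibition past about -25% in most replicates, and total fluorescence under double the plate's negative control median (limit read from the data); inconclusive = replicates evenly split on the limit, or fluorescence at least double controls; inactive = too little inhibition in most replicates.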
# Target: Zinc finger protein mex-5 (Caenorhabditis elegans) (UniProt Q9XUB2)
# Test: MEX-5 zinc finger RNA-binding disruptors – biochemical, C. elegans, fluorescence polarization, MLPCN library, primary screen (AID 1832);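 note: 0% = DMSO and -100% = 5 µM competing unlabeled TCR2 RNA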
# Details: MEX-5/FITC-TCR2 RNA binding, at 10 µM, active compounds read low
row,Structure (SMILES),activity score (negative = inhibition of binding)
1,Cc1cc(C)cc(OP(C)(N)=O)c1 (stereo unspecified),inactive: 2.52%
2,COc1ccccc1OP(C)(=O)Nc1cc(Cl)ccc1C (stereo unspecified),inactive: 2.85%
3,COc1ccc(OP(C)(=O)Nc2cccc(F)c2)cc1 (stereo unspecified),inactive: -0.11%
4,COc1ccccc1OP(C)(=O)Nc1ccc(C)cc1 (stereo unspecified),inactive: 0.536%
5,Cc1ccc(NP(C)(=O)Oc2ccccc2)c(C)c1 (stereo unspecified),inactive: -1.7%
6,CCOC(=O)c1ccc(NP(C)(=O)Oc2ccccc2)cc1 (stereo unspecified),inactive: 0.833%
7,O=[N+]([O-])c1ccc2c(c1)C=Nc1ccccc1O2,inactive: -0.0142%
8,CC(C)(C)c1ccc(OP(C)(=O)Nc2ccc(SC(F)(F)F)cc2)cc1 (stereo unspecified),inactive: -2.15%
9,Cc1cccc(C)c1OP(C)(N)=O (stereo unspecified),inactive: -0.171%
10,O=[N+]([O-])c1cc([N+](=O)[O-])c(Nc2cccnc2)c([N+](=O)[O-])c1,inactive: -0.783%
11,CCN(CC)CCCOC(=O)C(O)(c1ccccc1)c1ccccc1,inactive: 0.552%
12,CP(=O)(Nc1ccccn1)Oc1ccc(Cl)cc1 (stereo unspecified),inactive: -1.09%
13,O=[N+]([O-])c1cc([N+](=O)[O-])c(O)c([N+](=O)[O-])c1.c1ccc(Oc2ccncc2)cc1,inactive: -0.168%
14,CCOC(=O)c1ccc(NP(C)(=O)Oc2ccc(OC)cc2)cc1 (stereo unspecified),inactive: 1.37%
15,CCOP(C)(=S)SCC(=O)NC(C)C(=O)O (stereo unspecified),inactive: -2.8%
16,CP(=O)(NC(=O)Nc1ccccc1)Oc1ccccc1 (stereo unspecified),inactive: 1.92%
17,Cc1cc(C)cc(OP(C)(=O)Nc2ccc(SC(F)(F)F)cc2)c1 (stereo unspecified),inactive: -3.79%
18,CP(=O)(Nc1ccc(SC(F)(F)F)cc1)Oc1ccc(Cl)cc1 (stereo unspecified),inactive: -1.63%
19,Cc1cccc(C)c1OP(C)(=O)Nc1ccc(SC(F)(F)F)cc1 (stereo unspecified),inactive: 0.835%
20,CP(=O)(Oc1ccccc1)OC(c1ccccc1)C(F)(F)F (stereo unspecified),inactive: 0.9%
21,CP(=O)(Nc1ccccc1Br)Oc1ccccc1 (stereo unspecified),inactive: 1.33%
22,COc1ccccc1OP(C)(=O)Nc1ccccc1 (stereo unspecified),inactive: -2.2%

row,Structure (SMILES),activity score (negative = inhibition of binding)
1,CP(=S)(Nn1cnnc1)Oc1ccccc1 (stereo unspecified),inactive: -3.19%
2,CP(=O)(Nc1ccc(SC(F)(F)F)cc1)Oc1ccccc1 (stereo unspecified),inactive: 2.77%
3,CCCOc1ccc(NP(C)(=O)Oc2ccc(Cl)cc2)cc1 (stereo unspecified),inactive: 1.84%
4,CN1CCCCC1COC(=O)C1(O)c2ccccc2CCc2ccccc21 (stereo unspecified),inactive: 5.18%
5,COc1ccccc1OP(C)(=O)Nc1c(C)cccc1C (stereo unspecified),inactive: -1.39%
6,O=[N+]([O-])c1cc([N+](=O)[O-])c(Nc2nnnn2CCO)c([N+](=O)[O-])c1,inactive: 0.552%
7,CCOC(=O)C(CC)C1=NC(C)(C)Cc2ccccc21.O=[N+]([O-])c1cc([N+](=O)[O-])c(O)c([N+](=O)[O-])c1 (stereo unspecified),inactive: -1.1%
8,O=[N+]([O-])c1cc([N+](=O)[O-])c(-c2cnn(-c3ccccc3)c2)c([N+](=O)[O-])c1,inactive: 3.94%
9,O=[N+]([O-])c1cc([N+](=O)[O-])c(-n2nnc3ccccc32)c([N+](=O)[O-])c1,inactive: -0.907%
10,Cc1ccc(C)c(NP(C)(=O)Oc2ccccc2)c1 (stereo unspecified),inactive: -1.22%
11,CP(=O)(Nc1cccc(Br)c1)Oc1ccccc1 (stereo unspecified),inactive: 2.49%
12,Cc1cc(C)cc(OP(C)(=O)Nc2ccccn2)c1 (stereo unspecified),inactive: -3.03%
13,CCOC(=O)c1ccc(NP(C)(=O)Oc2cc(C)cc(C)c2)cc1 (stereo unspecified),inactive: 3.75%
14,Cc1cc(C)cc(OP(C)(=O)Nc2ccc(C)cc2C)c1 (stereo unspecified),inactive: -1.8%
15,COc1ccccc1OP(C)(=O)Nc1cccc(Br)c1 (stereo unspecified),inactive: 2.28%
16,CC1=NCCc2c1[nH]c1ccccc21.O=[N+]([O-])c1cc([N+](=O)[O-])c(O)c([N+](=O)[O-])c1,inactive: -0.235%
17,O=C(O)c1cccc(Nc2c([N+](=O)[O-])cc([N+](=O)[O-])cc2[N+](=O)[O-])c1,inactive: 1.66%
18,CP(=O)(Nc1ccccc1)Oc1ccc(F)cc1 (stereo unspecified),inactive: -3.47%
19,CCCCCOc1ccc(NP(C)(=O)Oc2ccc(Cl)cc2Cl)cc1 (stereo unspecified),inactive: 1.15%
20,O=[N+]([O-])c1cc([N+](=O)[O-])c(OC2CCCCC2O)c([N+](=O)[O-])c1 (stereo unspecified),inactive: -1.61%
21,CCOC(=O)c1ccc(NP(C)(=O)Oc2ccc(F)cc2)cc1 (stereo unspecified),inactive: 0.198%
22,COc1ccc(OP(C)(=O)Nc2ccc(SC(F)(F)F)cc2)cc1 (stereo unspecified),inactive: -3.62%

row,Structure (SMILES),activity score (negative = inhibition of binding)
1,COc1ccc2c(c1O)-c1c(O)c(OC)cc3c1[C@H](C2)[N+](C)(C)CC3.O=[N+]([O-])c1cc([N+](=O)[O-])c([O-])c([N+](=O)[O-])c1[O-],inactive: -4.27%
2,O=C(OC1CN2CCC1CC2)c1ccc([N+](=O)[O-])cc1 (stereo unspecified),inactive: 0.832%
3,O=C(OCCN1CCN(CCOCc2ccccc2)CC1)C(O)(c1ccccc1)c1ccccc1,inactive: 0.822%
4,CP(=O)(Nc1ccccc1F)Oc1ccccc1 (stereo unspecified),inactive: 1.33%
5,CC(C)c1ccc(OP(C)(=O)Nc2ccc(SC(F)(F)F)cc2)cc1 (stereo unspecified),inactive: -2.14%
6,Cc1ccccc1NP(C)(=O)Nc1ccccc1C,inactive: 1.41%
7,CP(=O)(Nc1ccc2c(c1)OCCO2)Oc1ccccc1 (stereo unspecified),inactive: 3.41%
8,CCOP(C)(=S)SCC(=O)NC(C)(CC)C(=O)O (stereo unspecified),inactive: -0.0518%
9,CP(=O)(Nc1ccc(SC(F)(F)F)cc1)Oc1ccc(F)cc1 (stereo unspecified),inactive: 0.591%
10,O=[N+]([O-])c1ccc(OP2(=O)COCCO2)cc1 (stereo unspecified),inactive: -0.741%
11,Cc1cc(-c2cccc3ccccc23)c(C)cn1.O=[N+]([O-])c1cc([N+](=O)[O-])c(O)c([N+](=O)[O-])c1,inactive: 1.16%
12,O=[N+]([O-])c1cc([N+](=O)[O-])c(NCC2CCS(=O)(=O)C2)c([N+](=O)[O-])c1 (stereo unspecified),inactive: -0.273%
13,CN(C)CCOC(=O)C(O)(c1ccccc1)C1CCCCC1 (stereo unspecified),inactive: 0.377%
14,COc1ccc(NP(C)(=O)Oc2ccccc2OC)cc1 (stereo unspecified),inactive: -1.12%
15,COc1ccc(OP(C)(=O)Nc2cccc(Br)c2)cc1 (stereo unspecified),inactive: 0.301%
16,CCOC(=O)c1ccc(NP(C)(=O)Oc2ccc(Cl)cc2)cc1 (stereo unspecified),inactive: -3.39%
17,CP(=O)(OC12CC3CC(CC(C3)C1)C2)OC12CC3CC(CC(C3)C1)C2,inactive: 2.18%
18,Nc1ccc2c(ccc3cccnc32)n1.O=[N+]([O-])c1cc([N+](=O)[O-])c(O)c([N+](=O)[O-])c1,inactive: -1.01%
19,CN(C)C(=O)c1c([N+](=O)[O-])cc([N+](=O)[O-])cc1[N+](=O)[O-],inactive: 1.94%
20,CC(C)(C)c1ccc(OP(C)(=O)O)cc1,inactive: -1.84%
21,COc1ccccc1OP(C)(=O)Nc1ccccc1Br (stereo unspecified),inactive: -0.367%
22,CP(=O)(Nc1ccc(Cl)cc1)Oc1ccc(F)cc1 (stereo unspecified),inactive: 1.4%

row,Structure (SMILES),activity score (negative = inhibition of binding)
1,COc1ccccc1OP(C)(=O)Nc1c(C)n(C)n(-c2ccccc2)c1=O (stereo unspecified),inactive: -1.45%
2,O=C(OCCCN1CCCC1)C(O)(c1ccccc1)C1CCCCC1 (stereo unspecified),inactive: -2.01%
3,CP(=O)(Oc1ccccc1)N1CCOC1=O (stereo unspecified),inactive: -2.26%
4,CCc1ccc(OP(C)(=O)Nc2cccnc2)cc1 (stereo unspecified),inactive: 0.17%
5,CCN(CC)CC(O)COC(=O)C(O)(c1ccccc1)C1CCCCC1 (stereo unspecified),inactive: 1.45%
6,COc1ccc(OP(C)(=O)Nc2ccc(Br)cc2)cc1 (stereo unspecified),inactive: 1.7%
7,CP(=O)(Nc1ccccn1)Oc1ccccc1 (stereo unspecified),inactive: -0.518%
8,COc1ccccc1OP(C)(=O)Nc1ccc(C)cc1C (stereo unspecified),inactive: 0.518%
9,CCc1ccc(OP(C)(=O)O)cc1,inactive: 1.74%
10,O=[N+]([O-])c1cc([N+](=O)[O-])c(Nc2ccccn2)c([N+](=O)[O-])c1,inactive: 2.19%
11,Cc1c(NP(C)(=O)Oc2ccc(C(C)C)cc2)c(=O)n(-c2ccccc2)n1C (stereo unspecified),inactive: 1.73%
12,COc1ccc(OP(C)(=O)Nc2ccccn2)cc1 (stereo unspecified),inactive: -1.98%
13,CN(C)CCOC(=O)C(O)(c1ccccc1)C1CCCC1 (stereo unspecified),inactive: 1.32%
14,COc1ccccc1OP(C)(=O)Nc1ccc(Br)cc1 (stereo unspecified),inactive: 0.485%
15,CP(=O)(OCCOc1ccccc1)OCCOc1ccccc1,inactive: 0.697%
16,CP(=O)(Nc1ccc(Cl)cc1Cl)Oc1ccccc1 (stereo unspecified),inactive: -1.26%
17,Cc1nc2ccc3ccccc3c2o1.O=[N+]([O-])c1cc([N+](=O)[O-])c(O)c([N+](=O)[O-])c1,inactive: -1.69%
18,COc1ccccc1OP(C)(=O)Nc1ccc(C)c(C)c1 (stereo unspecified),inactive: 0.174%
19,COc1ccc(OP(C)(=O)Nc2ccccc2Br)cc1 (stereo unspecified),inactive: 1.32%
20,Cc1cc(C)cc(OP(C)(=O)Nc2cccc(C(F)(F)F)c2)c1 (stereo unspecified),inactive: 1.1%
